Data from patent publication US10039772B2, “Methods and compositions for treating alcohol use disorders” (priority 2015, dated 2018).

The chains behind the UniProt entries cited, without tags or fusion partners. Where a name states a change or a piece, a line headed by the entry shows the natural chain unless it says otherwise.
UniProt P28845: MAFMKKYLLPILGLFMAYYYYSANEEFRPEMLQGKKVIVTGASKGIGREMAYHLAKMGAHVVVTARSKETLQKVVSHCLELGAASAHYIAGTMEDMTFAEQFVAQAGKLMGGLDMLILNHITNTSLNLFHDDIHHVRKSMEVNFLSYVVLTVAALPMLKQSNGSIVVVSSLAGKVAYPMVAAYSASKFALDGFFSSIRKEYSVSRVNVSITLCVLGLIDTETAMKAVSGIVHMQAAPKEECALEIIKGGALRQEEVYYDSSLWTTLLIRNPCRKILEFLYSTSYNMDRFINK

Columns and labels:
[1] = molecular target: human 11β-HSD1 (Homo sapiens, UniProt P28845); test: HTRF assay, human 11β-HSD1; assay type: biochemical
[2] = system: 11β-HSD1, 11β-HSD2; details: cited from earlier work

SMILES | IC50 [1] [nM] | Specificity [2]
CC1(C(=O)O)CCC2(C)CCC3(C)C(=CC(=O)C4C5(C)CCC(OC(=O)CCC(=O)O)C(C)(C)C5CCC43C)C2C1 (centres unmarked) | 753 | 
N#Cc1ccc(-c2ccc(S(=O)(=O)Nc3cccc(N)n3)cc2)cc1 |  | 11β- HSD1 > 2
